# US20150320880A1, “ANTIBODY DRUG CONJUGATES” (NOVARTIS AG, priority 2013, published 2015)
# Assays:
# GIST882 cell line = assay: Combination dose-matrix cell viability (CellTiter Glo, Loewe model); type: cell-based; details: NEG085-MCC-DM1 in combination with the compound, 120 h
# Method: (§1) Relative inhibition of cell viability was calculated for every dose combination. Using either the Chalice software (Zalicus, Cambridge Mass.) or ComboExplorer application (Novartis, Basel CH), the response of the combination was compared to its single agents, against the widely used Loewe model for drug-with-itself dose-additivity (Lehar et al. Nat. Biotechnol. (2009) 27: 659-666; Zimmermann et al., Drug Discov. Today (2007) 12: 34-42). Excess inhibition compared to additivity can be plotted as a full dose-matrix chart to visualize the drug concentrations where synergies occur. Synergistic combinations produced regions of excess inhibition within the dose-matrix. […] “Additivity” was found when the combination generated the same inhibition of cell viability response when compared to the response with the single agent by itself “Synergy” was indicated when the inhibition of cell viability was greater than the response of the single agent compared with itself. Alternatively, “Additivity” was indicated with a Loewe score of less than 5, and “Synergy” was indicated by a Loewe score of greater than 5.
# (§2) Cell viability was determined by measuring cellular ATP content using the CellTiter Glo luminescence assay (Promega, Madison Wis.). […] Luminescence values were used to calculate the inhibition of cell viability relative to DMSO-treated cells (0% inhibition).
# GIST430 cell line = assay: as above; type: cell-based; details: NEG085-MCC-DM1 in combination with the compound, 120 h
# Method: as §1, §2
structure (smiles),measurement,setting,value
Cc1ccc(NC(=O)c2ccc(CN3CCN(C)CC3)cc2)cc1Nc1nccc(-c2cccnc2)n1 [Imatinib],GIST882 cell line,GIST882 cell line,Additivity (“Additivity” was indicated with a Loewe score of less than 5)
same,GIST430 cell line,GIST430 cell line,Synergy (“Synergy” was indicated by a Loewe score of greater than 5)
